ChEMBL document CHEMBL1156261, “Evaluation of substituted N,N'-diarylsulfonamides as activators of the tumor cell specific M2 isoform of pyruvate kinase” (J Med Chem, 2010)

Protein sequences, listed by entry. Tags and fused reporters are not part of them.
UniProt P14618, whole entry, looked up: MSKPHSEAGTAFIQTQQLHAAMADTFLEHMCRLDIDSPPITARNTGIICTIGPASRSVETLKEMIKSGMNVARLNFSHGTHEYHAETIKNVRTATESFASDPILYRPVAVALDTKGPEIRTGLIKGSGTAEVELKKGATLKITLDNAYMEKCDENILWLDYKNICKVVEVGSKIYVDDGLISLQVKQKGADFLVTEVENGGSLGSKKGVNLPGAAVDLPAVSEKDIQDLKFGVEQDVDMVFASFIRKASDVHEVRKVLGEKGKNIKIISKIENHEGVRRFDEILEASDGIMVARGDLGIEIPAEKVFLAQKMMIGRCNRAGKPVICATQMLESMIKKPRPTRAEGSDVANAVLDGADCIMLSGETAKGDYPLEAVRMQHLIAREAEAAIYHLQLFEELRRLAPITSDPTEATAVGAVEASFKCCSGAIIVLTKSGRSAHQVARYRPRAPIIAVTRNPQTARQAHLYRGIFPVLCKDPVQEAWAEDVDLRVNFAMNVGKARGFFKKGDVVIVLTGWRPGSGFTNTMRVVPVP

Target: Pyruvate kinase PKM (Homo sapiens, UniProt P14618)
Test: Activation of PKM2 assessed as reduction of Km for phosphoenolpyruvate relative to untreated control
Summary of the method: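 Steady-state kinetics were measured by the PK–LDH coupled assay at about 22 °C with 10 nM PKM2, 200 mM KCl and 15 mM MgCl2. One substrate (PEP or ADP) was varied with the other held at 4.0 mM, with or without activator. Fluorescence was converted to pmol NADH by a standard curve; initial rates (pmol/min) were fit for KM.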

fold change (FC): 10
Structure (SMILES): O=P(O)(O)OC[C@H]1O[C@@](O)(COP(=O)(O)O)[C@@H](O)[C@@H]1O
